From PubChem BioAssay (NCI)
Only a part is listed here, and it is no random draw. Where a structure was tested more than once in an assay, its records may differ in their call. The source made the active and inactive calls. Rule as the data show it: active = growth inhibition above about 70%; inactive = the rest.

Test: NCI Yeast Anticancer Drug Screen. Data for the rad14 strain (AID 159);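 also: 0% = growth of vehicle-treated control cultures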
Settings: S. cerevisiae rad14 strain growth inhibition, hits give high values
Description: Growth inhibition of yeast strains with defined genetic alterations is measured as a screen for potential anti-cancer activity. Selected strains with alterations in DNA damage repair or cell cycle control were exposed to compounds and growth inhibition was measured relative to vehicle treated controls. The strain used in this assay is rad14

| Compound | growth inhibition (at 1.2 µM) | growth inhibition (at 3.7 µM) | growth inhibition (at 11.0 µM) | growth inhibition (at 33.0 µM) | growth inhibition (at 100.0 µM) |
| --- | --- | --- | --- | --- | --- |
| Cn1cnc([N+](=O)[O-])c1C[N+](C)(CCCl)CCCl | inactive: -21% | inactive: -8% | inactive: 45% | active: 83% | active: 90% |
| ClCCN1CCCCC1CCl (stereo not given) | inactive: -1% | inactive: 2% | inactive: 16% | inactive: 65% | active: 95% |
| Cc1ccc([N+](=O)[O-])c(C[N+](C)(CCCl)CCCl)c1 | inactive: -20% | inactive: 17% | active: 80% | active: 93% | active: 95% |
| COc1ccc([N+](=O)[O-])c(C[N+](C)(CCCl)CCCl)c1 | inactive: -6% | inactive: -8% | inactive: 16% | active: 81% | active: 93% |
| COc1ccc(C[N+](C)(CCCl)CCCl)c([N+](=O)[O-])c1 | inactive: 11% | inactive: 13% | inactive: 28% | inactive: 45% | inactive: 47% |
| Cc1cccc(C[N+](C)(CCCl)CCCl)c1[N+](=O)[O-] | inactive: -10% | inactive: 8% | active: 79% | active: 94% | active: 95% |
